We go through one compound from patent publication US20120022024A1, “ANTI-BACTERIAL COMPOSITIONS AND METHODS INCLUDING TARGETING VIRULENCE FACTORS OF STAPHYLOCOCCUS AUREUS” (priority 2009, published 2012).

The chains behind the UniProt entries cited, without tags or fusion partners. Where a name states a change or a piece, a line headed by the entry shows the natural chain unless it says otherwise.
UniProt A9JQL9: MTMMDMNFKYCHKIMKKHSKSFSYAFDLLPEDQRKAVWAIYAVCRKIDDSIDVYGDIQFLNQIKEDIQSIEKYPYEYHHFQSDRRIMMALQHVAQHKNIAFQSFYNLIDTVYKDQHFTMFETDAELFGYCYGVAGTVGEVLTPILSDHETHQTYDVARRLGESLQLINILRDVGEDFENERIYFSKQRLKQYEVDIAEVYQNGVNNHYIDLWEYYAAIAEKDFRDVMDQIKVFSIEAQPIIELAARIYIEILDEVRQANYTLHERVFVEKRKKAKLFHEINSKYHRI

SMILES strings stand for the structures. pIC50: −log10 of the molar value. Where a name gives a salt, the structure may show the parent alone.

The target of this assay is S. aureus CrtM (dehydrosqualene synthase) (Staphylococcus aureus, UniProt A9JQL9). As to the kind of experiment: CrtM enzyme inhibition assay. To be noted: read-out: CrtM enzyme experimental activity IC50; Table 5.

Turning to `CCn1c2ccccc2c2cc(CCCC(P(=O)(O)O)S(=O)(=O)O)ccc21` (stereo not shown) [Compound 19, 1-Phosphono-4-(9-ethylcarbazole-3-yl)butylsulfonic acid tripotassium salt], the pIC50 was 3.77.

Usually pIC50 stands for the negative decadic logarithm of the IC50, by convention in mol/L.
